From ChEMBL document CHEMBL1127385, “Synthesis and diuretic activity of alkyl- and arylguanidine analogs of N,N'-dicyclohexyl-4-morpholinecarboxamidine in rats and dogs” (J Med Chem, 1994) come the findings set out here.

The data set deals with Rattus norvegicus. The data set is described as follows: Ratio of Total electrolytic excretion of sodium and potassium in urine of rats after peroral administration of 0 uM/Kg of drug. The format is ADME, organism-based. Conditions: in vivo, po.

In the case of `NS(=O)(=O)c1cc(C(=O)O)c(NCc2ccco2)cc1Cl` [FUROSEMIDE], the Ratio is reported as 2.7.
